The values that follow are results of earlier work, collected in patent US7452892B2, “Triazolopyrimidine cannabinoid receptor 1 antagonists” (Bristol-Myers Squibb Company, priority 2005, dated 2008).

The conditions of this series: chronic administration for two weeks.

`Cc1c(C(=O)NN2CCCCC2)nn(-c2ccc(Cl)cc2Cl)c1-c1ccc(I)cc1` [AM-251]: the adipose tissue mass result was “decreased adipose tissue mass”.
